Laboratory results from patent US6919338B2, “Substituted quinazoline derivatives and their use as inhibitors of aurora-2 kinase” (AstraZeneca AB, priority 2000, dated 2005).

By UniProt entry, the sequences of proteins in these tests, tags left out.
UniProt O14965, whole entry: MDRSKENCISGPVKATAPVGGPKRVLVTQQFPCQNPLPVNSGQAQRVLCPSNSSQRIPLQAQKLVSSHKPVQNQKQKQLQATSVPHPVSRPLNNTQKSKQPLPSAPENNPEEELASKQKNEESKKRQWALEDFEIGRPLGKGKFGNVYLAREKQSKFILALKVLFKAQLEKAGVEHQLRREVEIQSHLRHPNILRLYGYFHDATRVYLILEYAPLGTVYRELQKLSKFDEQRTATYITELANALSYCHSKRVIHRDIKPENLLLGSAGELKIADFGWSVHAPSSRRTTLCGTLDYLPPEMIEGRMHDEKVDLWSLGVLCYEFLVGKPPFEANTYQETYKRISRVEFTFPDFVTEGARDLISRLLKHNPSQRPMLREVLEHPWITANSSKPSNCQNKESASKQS

Tests used:
aurora2 kinase = aurora2 kinase (Homo sapiens, UniProt O14965); experiment: In vitro aurora2 kinase inhibition test; settings: read-out: concentration giving 50% inhibition of enzyme activity; recombinant aurora2, 33P-ATP, biotinylated peptide substrate, 60 minutes at room temperature
Source text: (a) In Vitro Aurora2 Kinase Inhibition Test This assay determines the ability of a test compound to inhibit serine/threonine kinase activity. DNA encoding aurora2 may be obtained by total gene synthesis or by cloning. This DNA may then be expressed in a suitable expression system to obtain polypeptide with serine/threonine kinase activity. In the case of aurora2, the coding sequence was isolated from cDNA by polymerase chain reaction (PCR) and cloned into the BamH1 and Not1 restriction endonuclease sites of the baculovirus expression vector pFastBac HTc (GibcoBRL/Life technologies). The 5′ PCR primer contained a recognition sequence for the restriction endonuclease BamH1 5′ to the aurora2 coding sequence. This allowed the insertion of the aurora2 gene in frame with the 6 histidine residues, spacer region and rTEV protease cleavage site encoded by the pFastBac HTc vector. The 3′ PCR primer replaced the aurora2 stop codon with additional coding sequence followed by a stop codon and a recognition sequence for the restriction endonuclease Not1. This additional coding sequence (5′ […] 3′) encoded for the polypeptide sequence YPYDVPDYAS. This sequence, derived from the influenza hemagglutin protein, is frequently used as a tag epitope sequence that can be identified using specific monoclonal antibodies. […]

[1] = tested on: human tumour cell line MCF7; experiment: In vitro cell proliferation assay; settings: read-out: concentration giving 50% inhibition of cell proliferation; MCF-7 cells, 3 days with compound, CyQUANT
Source text: (a) In Vitro Cell Proliferation Assay
This assay determines the ability of a test compound to inhibit the growth of adherent mammalian cell lines, for example the human tumour cell line MCF7. MCF-7 (ATCC HTB-22) or other adherent cells were typically seeded at 1×10^3 cells per well (excluding the peripheral wells) in DMEM (Sigma Aldrich) without phenol red, plus 10% foetal calf serum, 1% L-glutamine and 1% penicillin/streptomycin in 96 well tissue culture treated clear plates (Costar). The following day (day 1), the media was removed from a no treatment control plate and the plate stored at −80° C. The remaining plates were dosed with compound (diluted from 10 mM stock in DMSO using DMEM (without phenol red, 10% FCS, 1% L-glutamine, 1% penicillin/streptomycin). Untreated control wells were included on each plate. After 3 days in the presence/absence of compound (day 4) the media was removed and the plates stored at −80° C. Twenty four hours later the plates were thawed at room temperature and cell density determined using the CyQUANT cell proliferation assay kit (c-7026/c-7027 Molecular Probes Inc.) according to manufacturers directions. Briefly, 200 μl of a cell lysis/dye mixture (10 μl of 20× cell lysis buffer B, 190 μl of sterile water, 0.25 μl of CYQUANT GR dye) was added to each well and the plates incubated at room temperature for 5 minutes in the dark. […]

COc1cc2c(Nc3cc(C(=O)Nc4ccc(F)cc4)n(C)c3)ncnc2cc1OCCCN1CCOCC1
IC50 (aurora2 kinase): 89 nM | IC50 [1]: 5900 nM
